From ChEMBL document CHEMBL5528070, “Design and Synthesis of Dual-Target Inhibitors Targeting Androgen Receptors and Glucocorticoid Receptors to Overcome Antiandrogen Resistance in Castration-Resistant Prostate Cancer” (J Med Chem, 2024)

The chains behind the UniProt entries cited, without tags or fusion partners. Where a name states a change or a piece, a line headed by the entry shows the natural chain unless it says otherwise.
UniProt P10275: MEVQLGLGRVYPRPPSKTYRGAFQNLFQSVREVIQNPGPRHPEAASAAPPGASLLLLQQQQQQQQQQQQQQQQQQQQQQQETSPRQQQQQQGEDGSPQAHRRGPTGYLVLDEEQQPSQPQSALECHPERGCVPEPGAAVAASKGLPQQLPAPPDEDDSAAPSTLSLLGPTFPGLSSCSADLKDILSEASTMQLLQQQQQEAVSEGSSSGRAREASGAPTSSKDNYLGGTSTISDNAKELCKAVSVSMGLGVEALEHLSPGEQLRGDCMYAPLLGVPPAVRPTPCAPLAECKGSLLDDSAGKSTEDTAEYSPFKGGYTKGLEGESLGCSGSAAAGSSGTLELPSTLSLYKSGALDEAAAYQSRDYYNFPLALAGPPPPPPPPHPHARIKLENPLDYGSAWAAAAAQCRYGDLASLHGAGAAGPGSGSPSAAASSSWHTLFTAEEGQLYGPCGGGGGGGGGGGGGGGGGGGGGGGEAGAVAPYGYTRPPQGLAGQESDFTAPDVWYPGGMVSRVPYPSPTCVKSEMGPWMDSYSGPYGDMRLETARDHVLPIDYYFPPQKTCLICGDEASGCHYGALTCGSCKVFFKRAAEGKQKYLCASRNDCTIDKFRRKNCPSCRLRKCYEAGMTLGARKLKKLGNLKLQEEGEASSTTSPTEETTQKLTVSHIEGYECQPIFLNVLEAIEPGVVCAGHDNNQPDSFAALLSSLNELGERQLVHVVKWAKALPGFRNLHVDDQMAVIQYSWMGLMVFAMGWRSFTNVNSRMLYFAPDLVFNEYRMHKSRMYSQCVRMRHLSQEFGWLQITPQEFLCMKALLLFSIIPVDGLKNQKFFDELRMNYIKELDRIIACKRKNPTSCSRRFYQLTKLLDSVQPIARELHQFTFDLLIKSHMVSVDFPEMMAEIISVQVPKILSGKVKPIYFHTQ

Tests used:
LNCaP C4-2 = assay: Antiproliferative activity against human C4-2 cells assessed as reduction in cell viability measured after 72 hrs by CCK-8 method; settings: LNCaP C4-2, 72 h
[1] = Antiproliferative activity against African green monkey COS-7 cells assessed as reduction in cell viability measured after 72 hrs by CCK-8 method; settings: chlorocebus aethiops
DU-145 = assay: Antiproliferative activity against human DU-145 cells assessed as reduction in cell viability measured after 72 hrs by CCK-8 method; settings: DU-145, 72 h
PC-3 = assay: Antiproliferative activity against human PC-3 cells assessed as reduction in cell viability measured after 72 hrs by CCK-8 method; settings: PC-3, 72 h
LNCaP = assay: Antiproliferative activity against human LNCaP cells assessed as reduction in cell viability measured after 72 hrs by CCK-8 method
in vivo [2] = settings: Sprague-Dawley, rat, po, 40 mg/kg
CWR22R = assay: Antiproliferative activity against human 22Rv1 cells assessed as reduction in cell viability measured after 72 hrs by CCK-8 method; settings: 22Rv1, 72 h
Androgen receptor [3] = target: T1, Androgen receptor (Homo sapiens, UniProt P10275)
in vivo [4] = settings: Sprague-Dawley, rat, po, 40 mg/kg; remark: listed apart in the source
Androgen receptor [5] = target: T1, Androgen receptor; remark: listed apart in the source

Row | half-life at 8 h (in vivo [2]) [h] | IC50 (Androgen receptor [3]) [µM] | Tmax at 8 h (in vivo [4]) [h] | IC50 (Androgen receptor [5]) [µM] | SMILES | CC50 (LNCaP C4-2) [µM] | CC50 at 72 h [1] [µM] | CC50 (DU-145) [µM] | CC50 (PC-3) [µM] | CC50 (LNCaP) [µM] | CC50 (CWR22R) [µM]
1 | – | – | – | – | Cc1ccc(NC(=O)c2ccc(NC(=O)c3cccc(S(=O)(=O)N4CCCc5ccccc54)c3)s2)cc1 | 2.38 | 12.1 | 3.38 | 2.3 | 3.96 | –
2 | 1.16 | 0.13 | 2.5 | 0.458 | N#Cc1ccc(NC(=O)c2cccc(S(=O)(=O)N3CCCc4ccccc43)c2)cc1 | 7.9 | > 50 | 33.3 | 27.8 | 2.45 | 11.6
